Results published in patent publication US5284834A, “Adenosine functionalized congeners as cardiovascular treating agents for animals and methods for using same” (priority 1992, dated 1994).

The chains behind the UniProt entries cited, without tags or fusion partners.
UniProt P11617, whole entry: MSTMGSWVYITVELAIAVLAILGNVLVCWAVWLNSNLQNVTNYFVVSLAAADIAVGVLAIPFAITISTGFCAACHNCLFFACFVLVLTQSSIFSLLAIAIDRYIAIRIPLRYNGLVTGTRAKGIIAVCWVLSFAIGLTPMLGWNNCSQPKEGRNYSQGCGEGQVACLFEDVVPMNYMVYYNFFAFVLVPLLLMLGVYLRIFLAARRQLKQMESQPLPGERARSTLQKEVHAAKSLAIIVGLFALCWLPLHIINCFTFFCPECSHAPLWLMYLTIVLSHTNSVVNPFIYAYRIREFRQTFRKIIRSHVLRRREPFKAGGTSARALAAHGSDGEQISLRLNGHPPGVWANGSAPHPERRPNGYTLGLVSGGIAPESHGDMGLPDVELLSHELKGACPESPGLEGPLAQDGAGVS

Target: T1, Coronary A2-Adenosine Receptor (Canis lupus familiaris, UniProt P11617)
T1 construct: The assay of coronary vasoactivity in the anesthetized, open-chest dog; from tissue; host or cells: coronary vessels in situ, anesthetized open-chest dog
Test: Coronary vasoactivity in the anesthetized, open-chest dog (intracoronary infusion; MPR from EC50)
Assay type: in vivo
Details: molar potency ratio: EC50 of adenosine divided by that of the analogue
Description: In the present invention there is compared the A1 - and A2 -potencies of a series of long-chain derivatives of adenosine suitable for attachment to "carriers," such as peptides or proteins, and for immobilization to polymeric matrices for affinity chromatography of adenosine receptors. The method employed is a comparison of increasing coronary blood flow via activation of an A2 -adenosine receptor versus an A1 -binding assay in rat brain.
The potencies at A2 -receptors (Table 1) are expressed as a molar potency ratio of the EC50 value of adenosine divided by that of the adenosine analogue. A common reference compound on which to base molar potency ratios was needed to facilitate comparison of activities at A1 and A2 receptors. Adenosine itself cannot be used as a reference in the A1 binding assay since treatment of the membranes with adenosine deaminase is essential. […] Thus, MeAdo was used as a suitable reference compound.
The assay of coronary vasoactivity in the anesthetized, open-chest dog, is described by Kusachi et al, J. Med. Chem., in press, and Olsson, et al, J. Circ. […] The assay estimates an EC-50, the concentration of analogue which produces a half maximum change in coronary conductance (reciprocal resistance). To reduce between-animal variability activity is expressed as a molar potency ratio (MPR) the value of the EC-50 of adenosine divided by that of the analogue. […]

SMILES: CNC(=O)Cc1ccc(Nc2ncnc3c2ncn3[C@@H]2O[C@H](CO)[C@@H](O)[C@H]2O)cc1 [Compound 9]
- A2 Receptor MPR Relative to Ado: 4.9 ± 1.3
